# Experimental boiling point values from OPERA 2.9

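OPERA's authors assembled the values from existing databases and did not measure them anew. One number stands for a compound and property, with no spread given. Method, purity and exact conditions of the single measurements are not given. Where a salt, mixture or single isomer is drawn, the source does not say that exactly this form was tested. Some entries may be limits or estimates that an upstream database listed as plain numbers.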

Boiling points are in °C, nominally at 760 mmHg.
Cells with "–" have no entry in this list.

structure (SMILES),name,BP (°C)
CCNP(=S)(OC)O/C(C)=C/C(=O)OC(C)C (stereo partly drawn),Propetamphos,87
CO/N=C(/C(=O)OC)c1ccccc1CO/N=C(\C)c1cccc(C(F)(F)F)c1,Trifloxystrobin,312
ClC(Cl)=Nc1ccccc1,Phenylcarbylamine chloride,210
FC(F)(F)/C=C\C(F)(F)F,"(Z)-1,1,1,4,4,4-Hexafluoro-2-butene",33.33
CCCSC(=O)Cl,S-(Propyl) chlorothioformate,155
O=C(NCCc1ncc(C(F)(F)F)cc1Cl)c1ccccc1C(F)(F)F,Fluopyram,318
C=CC(=O)OCCCCO,4-Hydroxybutyl prop-2-enoate,236.1
CN(C)c1ccc(C(=O)c2ccc(N(C)C)cc2)cc1,Bis(4-(dimethylamino)phenyl)methanone,360
CC(C)(C)CC(C)(C)c1cc(-n2nc3ccccc3n2)c(O)c(C(C)(C)c2ccccc2)c1,–,440
CC(CC#N)N1CC1 (configuration not stated),"1-Aziridinepropanenitrile, .beta.-methyl-",195.8
CCOP(=S)(OCC)Oc1nc(Cl)c(Cl)cc1Cl,Chlorpyrifos,160
CN[C@@H](C)Cc1ccccc1,Methamphetamine,212
CCOc1cc(Cl)c(CS(=O)(=O)C2=NOC(C)(C)C2)cc1Cl,Fenoxasulfone,468
CC1CC(CC2CCC(N)C(C)C2)CCC1N (configuration not stated),Bis(4-amino-3-methylcyclohexyl)methane,342
COc1cc2c(cc1OC)[C@@]13CCN4CC5=CCO[C@H]6CC(=O)N2[C@H]1[C@H]6[C@H]5C[C@H]43,Brucine,470
CCOc1nc(NC)nc(NC(=O)NS(=O)(=O)c2ccccc2C(=O)OC)n1,Ethametsulfuron-methyl,316.8
CC(Cl)OC(C)Cl (configuration not stated),Bis(alpha-chloroethyl) ether,116
C1CCC2NCCC2C1 (configuration not stated),Octahydro-1H-indole,186
CCOP(=S)(OCC)SCSP(=S)(OCC)OCC,Ethion,150
O=C(OOC(=O)C(F)(F)C(F)(F)C(F)F)C(F)(F)C(F)(F)C(F)F,"Bis(2,2,3,3,4,4-hexafluoro-1-oxobutyl)peroxide",40
O=[N+]([O-])c1ccc(Nc2ccccc2)cc1,4-Nitro-N-phenylaniline,343
CN1CC[C@]23c4c5ccc(O)c4O[C@H]2C(=O)CC[C@H]3[C@H]1C5,Hydromorphone,305
CC(C)(Cl)CCl,"1,2-Dichloro-2-methylpropane",106
O=C(NC(=O)c1c(F)cccc1F)Nc1ccc(Cl)cc1,Diflubenzuron,257
CC(=O)OC(c1ccccc1)C(Cl)(Cl)Cl (configuration not stated),"2,2,2-Trichloro-1-phenylethyl acetate",260
O=C(O)C(F)(F)OC1(F)OC(F)(F)OC1(F)OC(F)(F)F (configuration not stated),"Perfluoro(2-[5-methoxy-1,3-dioxolan-4-yloxy]acetic acid)",169
COCC(=O)N(c1c(C)cccc1C)C(C)C(=O)OC (configuration not stated),Metalaxyl,295.9
CSc1ccc(C(=O)C(C)(C)N2CCOCC2)cc1,2-Methyl-4'-(methylthio)-2-morpholinopropiophenone,348.9
CN1CC[C@]23c4c5ccc(OCCN6CCOCC6)c4O[C@H]2[C@@H](O)C=C[C@H]3[C@H]1C5,Pholcodine,577.8
O=C(O)CCP(=O)(O)c1ccccc1,3-[Hydroxy(phenyl)phosphoryl]propanoic acid,310
C[C@@H]1[C@@H](c2ccc(Cl)cc2)SC(=O)N1C(=O)NC1CCCCC1,Hexythiazox,222
CCCCOC(=O)COC(=O)c1ccccc1C(=O)OCCCC,–,345
CC(C)c1cc(Cc2cc(C(C)C)c(N)c(C(C)C)c2)cc(C(C)C)c1N,"Benzenamine, 4,4'-methylenebis[2,6-bis(1-methylethyl)-",375
O=C(F)C1(F)OC1(F)F (configuration not stated),"2,3,3-Trifluoro-2-oxiranecarbonyl fluoride",16
C=CCOC(=O)C(C)(C)OC(=O)c1cc(-n2c(=O)cc(C(F)(F)F)n(C)c2=O)ccc1Cl,Butafenacil,301.7
CC(C)OC(=O)[C@H](C)N[P@](=O)(Oc1ccccc1)Oc1c(F)c(F)c(F)c(F)c1F,–,290
O=C1NC(=O)N(Cc2ccccc2)C(=O)C1c1ccccc1 (configuration not stated),"2,4,6(1H,3H,5H)-Pyrimidinetrione, 5-phenyl-1-(phenylmethyl)-",342.8
CC(=O)Cc1c(Cl)cc(Cl)cc1Cl,"1-(2,4,6-Trichlorophenyl)-2-propanone",296
CCOC(F)(F)C(F)C(F)(F)F (configuration not stated),Ethyl 2H-perfluoropropyl ether,71
OC(c1ccc(Cl)cc1)(c1ccc(Cl)cc1)C(Cl)(Cl)Cl,Dicofol,370
C=CCC1=C(C)C(OC(=O)C2C(C=C(C)C)C2(C)C)CC1=O (configuration not stated),Allethrin,282
COP(=O)(OC)OC(Br)C(Cl)(Cl)Br (configuration not stated),Naled,200
CN(N=O)c1ccccc1,N-Methyl-N-nitrosoaniline,225
CC(COc1ccc(Oc2ccccc2)cc1)Oc1ccccn1 (configuration not stated),Pyriproxyfen,318
CN1[C@@H]2C[C@@H]3C[C@H]1[C@H](O)[C@H]2O3,Scopoline,248

Excerpt, the opening 7 entries:

| structure (SMILES) | name | BP (°C) |
|---|---|---|
| CCNP(=S)(OC)O/C(C)=C/C(=O)OC(C)C (stereo partly drawn) | Propetamphos | 87 |
| CO/N=C(/C(=O)OC)c1ccccc1CO/N=C(\C)c1cccc(C(F)(F)F)c1 | Trifloxystrobin | 312 |
| ClC(Cl)=Nc1ccccc1 | Phenylcarbylamine chloride | 210 |
| FC(F)(F)/C=C\C(F)(F)F | (Z)-1,1,1,4,4,4-Hexafluoro-2-butene | 33.33 |
| CCCSC(=O)Cl | S-(Propyl) chlorothioformate | 155 |
| O=C(NCCc1ncc(C(F)(F)F)cc1Cl)c1ccccc1C(F)(F)F | Fluopyram | 318 |
| C=CC(=O)OCCCCO | 4-Hydroxybutyl prop-2-enoate | 236.1 |

Data: OPERA 2.9 data sets, kmansouri/OPERA on GitHub.